According to US20030144205A1:

Target: mouse RFPL4, full-length (amino acid residues 1-287) (mouse) (UniProt Q8VH31)
Assay: yeast two-hybrid mating screen of the ovary cDNA library with pGBKT7-RFPL4 as bait

# of clones: 1 clones
Substance: Lysosomal-associated protein 4 (LAPTM4A) (from UniProt Q60961 1-233)
